Settings: deionized water, approximately 22° C., room temperature

## CC(C)OC(=O)C(C)NP(=O)(COC(C)Cn1cnc2c(N)ncnc21)Oc1ccccc1.O=S(=O)(O)c1ccc2ccccc2c1 (stereo not shown) [TAF Napsylate, Tenofovir Alafenamide Napsylate]
  Solubility: 7000 µg/mL

— patent US12202849B2, “Crystalline forms of tenofovir alafenamide” (Gilead Sciences, Inc., priority 2017, dated 2025)
